Assay results taken from patent US4865837A, “Aldoxime-substituted triazolium compounds useful in the treatment of poisoning by phosphorus-containing chemicals” (dated 1989).
Like-named read-outs stand apart in the source and are kept apart here.

Assays:
[1] = test system: acetylcholinesterase (inactivated by Soman); conditions: in words; amounts listed in Table I
[2] = test system: acetylcholinesterase (inactivated by Soman); conditions: in words; amounts listed in Table II

C[n+]1ccccc1C=NO.[Cl-]
mice treated with 2-PAM that survived [1]: none of the mice treated with 2-PAM, in the amounts listed, survived | mice treated with 2-PAM that survived [2]: none of the mice treated with 2-PAM, in the amounts listed, survived
